# These results got no clear call from the source, so the numbers are uncertain. Unless noted, the rule behind the calls is not given here. These assays gave more results; the selection is not random.
# Amino acid sequences for entries named in this document (tags omitted). A change or cut given only in a name is not applied to a line headed by its entry.
# UniProt P38398, whole entry, looked up: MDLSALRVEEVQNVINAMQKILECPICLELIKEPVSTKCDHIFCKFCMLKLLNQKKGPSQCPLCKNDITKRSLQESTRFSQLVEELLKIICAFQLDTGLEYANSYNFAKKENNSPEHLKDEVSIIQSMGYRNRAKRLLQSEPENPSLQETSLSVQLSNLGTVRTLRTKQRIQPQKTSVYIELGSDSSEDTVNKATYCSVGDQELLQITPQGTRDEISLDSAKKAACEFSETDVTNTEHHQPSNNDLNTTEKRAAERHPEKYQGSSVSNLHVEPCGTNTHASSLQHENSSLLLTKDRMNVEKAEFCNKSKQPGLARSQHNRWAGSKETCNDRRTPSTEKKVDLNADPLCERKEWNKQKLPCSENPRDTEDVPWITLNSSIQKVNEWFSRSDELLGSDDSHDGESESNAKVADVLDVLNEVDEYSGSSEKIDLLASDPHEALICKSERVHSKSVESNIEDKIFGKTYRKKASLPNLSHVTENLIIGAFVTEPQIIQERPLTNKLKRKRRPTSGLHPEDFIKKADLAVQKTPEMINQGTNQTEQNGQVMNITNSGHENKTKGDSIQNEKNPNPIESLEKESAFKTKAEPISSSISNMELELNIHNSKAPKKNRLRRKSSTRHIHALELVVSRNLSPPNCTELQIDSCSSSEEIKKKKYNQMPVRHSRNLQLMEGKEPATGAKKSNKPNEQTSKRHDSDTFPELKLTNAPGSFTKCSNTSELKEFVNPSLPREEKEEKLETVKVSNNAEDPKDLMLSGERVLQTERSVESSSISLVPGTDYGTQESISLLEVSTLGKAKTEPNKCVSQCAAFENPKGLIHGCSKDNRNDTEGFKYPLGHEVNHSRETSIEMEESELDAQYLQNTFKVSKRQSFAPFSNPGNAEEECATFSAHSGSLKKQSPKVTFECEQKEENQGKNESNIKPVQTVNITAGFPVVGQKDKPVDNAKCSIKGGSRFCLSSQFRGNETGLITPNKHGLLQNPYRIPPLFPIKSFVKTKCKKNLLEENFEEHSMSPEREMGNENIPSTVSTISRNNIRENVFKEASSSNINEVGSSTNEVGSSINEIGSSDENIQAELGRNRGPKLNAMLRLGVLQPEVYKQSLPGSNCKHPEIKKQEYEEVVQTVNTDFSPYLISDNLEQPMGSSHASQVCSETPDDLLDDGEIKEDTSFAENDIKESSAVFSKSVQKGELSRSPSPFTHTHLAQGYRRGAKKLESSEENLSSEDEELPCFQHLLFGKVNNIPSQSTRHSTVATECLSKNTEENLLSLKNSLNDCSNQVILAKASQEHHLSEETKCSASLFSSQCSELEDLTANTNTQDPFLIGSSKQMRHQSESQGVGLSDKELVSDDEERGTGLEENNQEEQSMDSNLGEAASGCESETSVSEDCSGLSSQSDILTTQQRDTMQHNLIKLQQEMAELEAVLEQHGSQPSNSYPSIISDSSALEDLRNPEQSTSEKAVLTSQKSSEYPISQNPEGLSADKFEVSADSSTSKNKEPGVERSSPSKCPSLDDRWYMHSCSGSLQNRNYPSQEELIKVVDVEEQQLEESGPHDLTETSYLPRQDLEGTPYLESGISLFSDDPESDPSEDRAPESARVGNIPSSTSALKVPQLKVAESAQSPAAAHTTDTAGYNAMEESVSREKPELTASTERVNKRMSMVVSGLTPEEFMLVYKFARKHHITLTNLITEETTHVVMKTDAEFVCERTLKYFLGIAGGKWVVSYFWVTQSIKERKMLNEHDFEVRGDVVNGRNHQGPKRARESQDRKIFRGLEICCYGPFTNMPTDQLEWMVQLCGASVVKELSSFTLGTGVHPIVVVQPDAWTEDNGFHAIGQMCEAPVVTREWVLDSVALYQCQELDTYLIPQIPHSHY
# UniProt O89049, whole entry, looked up: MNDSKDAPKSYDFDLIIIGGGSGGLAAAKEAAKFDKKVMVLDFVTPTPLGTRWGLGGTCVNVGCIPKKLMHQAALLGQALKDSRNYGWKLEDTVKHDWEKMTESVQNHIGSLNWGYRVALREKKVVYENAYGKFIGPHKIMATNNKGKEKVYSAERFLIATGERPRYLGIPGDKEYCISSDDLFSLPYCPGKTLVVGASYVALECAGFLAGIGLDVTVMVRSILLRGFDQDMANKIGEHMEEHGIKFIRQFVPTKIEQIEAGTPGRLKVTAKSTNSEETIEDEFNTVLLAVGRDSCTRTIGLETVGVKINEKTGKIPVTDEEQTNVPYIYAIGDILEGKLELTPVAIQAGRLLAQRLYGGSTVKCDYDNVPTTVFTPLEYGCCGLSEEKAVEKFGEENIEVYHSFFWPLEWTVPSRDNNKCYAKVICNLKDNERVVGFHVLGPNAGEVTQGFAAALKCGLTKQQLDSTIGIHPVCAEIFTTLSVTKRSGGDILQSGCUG
# UniProt O75496: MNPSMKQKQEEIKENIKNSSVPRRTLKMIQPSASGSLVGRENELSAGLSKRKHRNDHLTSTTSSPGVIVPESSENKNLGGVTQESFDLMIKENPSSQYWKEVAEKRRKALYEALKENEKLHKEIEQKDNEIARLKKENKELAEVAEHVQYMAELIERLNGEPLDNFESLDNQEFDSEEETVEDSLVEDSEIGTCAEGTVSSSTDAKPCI
# UniProt Q16236, whole entry, looked up: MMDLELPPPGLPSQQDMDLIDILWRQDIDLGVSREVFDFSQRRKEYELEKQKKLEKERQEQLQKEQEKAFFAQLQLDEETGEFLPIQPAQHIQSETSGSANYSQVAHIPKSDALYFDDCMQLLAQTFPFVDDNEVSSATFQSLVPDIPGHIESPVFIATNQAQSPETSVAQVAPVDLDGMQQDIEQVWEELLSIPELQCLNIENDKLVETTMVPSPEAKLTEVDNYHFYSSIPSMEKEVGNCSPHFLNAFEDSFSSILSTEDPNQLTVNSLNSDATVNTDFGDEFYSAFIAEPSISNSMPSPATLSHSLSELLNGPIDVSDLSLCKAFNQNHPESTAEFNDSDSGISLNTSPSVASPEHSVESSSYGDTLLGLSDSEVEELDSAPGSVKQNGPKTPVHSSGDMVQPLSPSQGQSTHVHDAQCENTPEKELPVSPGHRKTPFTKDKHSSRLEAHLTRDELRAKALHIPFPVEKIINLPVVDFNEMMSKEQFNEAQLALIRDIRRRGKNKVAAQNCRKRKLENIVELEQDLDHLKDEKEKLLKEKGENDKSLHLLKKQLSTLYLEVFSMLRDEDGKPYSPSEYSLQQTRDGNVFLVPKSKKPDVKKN
# UniProt P39748, whole entry, looked up: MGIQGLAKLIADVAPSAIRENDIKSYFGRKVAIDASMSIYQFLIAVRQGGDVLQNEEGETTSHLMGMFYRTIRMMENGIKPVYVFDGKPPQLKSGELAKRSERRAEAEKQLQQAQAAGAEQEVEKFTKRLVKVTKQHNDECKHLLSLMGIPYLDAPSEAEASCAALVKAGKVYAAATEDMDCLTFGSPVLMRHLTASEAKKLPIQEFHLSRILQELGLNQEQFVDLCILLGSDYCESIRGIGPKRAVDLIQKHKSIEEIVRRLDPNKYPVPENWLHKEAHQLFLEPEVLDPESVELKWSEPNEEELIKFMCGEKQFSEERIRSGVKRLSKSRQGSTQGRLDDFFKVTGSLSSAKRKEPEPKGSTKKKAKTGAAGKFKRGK
# UniProt P53350, whole entry, looked up: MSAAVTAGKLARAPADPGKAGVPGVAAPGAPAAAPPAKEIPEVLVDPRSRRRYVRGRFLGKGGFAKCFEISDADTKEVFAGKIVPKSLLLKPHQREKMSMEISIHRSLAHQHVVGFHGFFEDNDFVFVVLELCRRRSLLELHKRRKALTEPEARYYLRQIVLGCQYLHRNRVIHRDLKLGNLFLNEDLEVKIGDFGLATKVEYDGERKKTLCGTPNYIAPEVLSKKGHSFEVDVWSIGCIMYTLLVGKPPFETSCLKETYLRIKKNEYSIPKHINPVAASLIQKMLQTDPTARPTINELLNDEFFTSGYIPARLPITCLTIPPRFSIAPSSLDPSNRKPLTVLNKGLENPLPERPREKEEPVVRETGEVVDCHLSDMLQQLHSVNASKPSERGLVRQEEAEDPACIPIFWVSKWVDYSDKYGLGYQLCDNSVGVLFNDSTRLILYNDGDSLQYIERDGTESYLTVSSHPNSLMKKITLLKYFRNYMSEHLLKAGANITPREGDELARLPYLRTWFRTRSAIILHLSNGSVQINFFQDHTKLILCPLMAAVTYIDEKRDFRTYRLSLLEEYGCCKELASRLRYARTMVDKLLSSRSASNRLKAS
# UniProt P84022, whole entry, looked up: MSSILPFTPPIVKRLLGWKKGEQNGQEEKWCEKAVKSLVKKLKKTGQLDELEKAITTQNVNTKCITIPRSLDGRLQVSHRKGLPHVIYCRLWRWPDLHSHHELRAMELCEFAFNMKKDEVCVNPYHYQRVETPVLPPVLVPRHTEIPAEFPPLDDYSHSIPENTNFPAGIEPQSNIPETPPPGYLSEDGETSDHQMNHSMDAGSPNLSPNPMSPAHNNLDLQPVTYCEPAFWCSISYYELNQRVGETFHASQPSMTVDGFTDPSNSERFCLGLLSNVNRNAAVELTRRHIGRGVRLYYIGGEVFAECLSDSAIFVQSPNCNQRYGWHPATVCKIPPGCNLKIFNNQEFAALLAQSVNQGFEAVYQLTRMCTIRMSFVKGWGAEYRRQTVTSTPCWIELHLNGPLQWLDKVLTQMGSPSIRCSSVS
# UniProt P11473: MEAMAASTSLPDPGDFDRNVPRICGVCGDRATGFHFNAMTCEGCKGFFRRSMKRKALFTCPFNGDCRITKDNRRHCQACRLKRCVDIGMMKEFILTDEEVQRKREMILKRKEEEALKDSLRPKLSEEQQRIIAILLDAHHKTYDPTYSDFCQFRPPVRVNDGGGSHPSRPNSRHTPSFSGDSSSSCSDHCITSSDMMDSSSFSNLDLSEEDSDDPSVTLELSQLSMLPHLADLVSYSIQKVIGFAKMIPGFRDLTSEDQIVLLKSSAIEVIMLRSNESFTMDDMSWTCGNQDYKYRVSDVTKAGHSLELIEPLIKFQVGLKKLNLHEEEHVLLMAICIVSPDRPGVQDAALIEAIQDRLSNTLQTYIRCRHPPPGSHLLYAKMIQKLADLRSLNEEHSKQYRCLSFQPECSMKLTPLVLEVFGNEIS
# UniProt Q9Y253: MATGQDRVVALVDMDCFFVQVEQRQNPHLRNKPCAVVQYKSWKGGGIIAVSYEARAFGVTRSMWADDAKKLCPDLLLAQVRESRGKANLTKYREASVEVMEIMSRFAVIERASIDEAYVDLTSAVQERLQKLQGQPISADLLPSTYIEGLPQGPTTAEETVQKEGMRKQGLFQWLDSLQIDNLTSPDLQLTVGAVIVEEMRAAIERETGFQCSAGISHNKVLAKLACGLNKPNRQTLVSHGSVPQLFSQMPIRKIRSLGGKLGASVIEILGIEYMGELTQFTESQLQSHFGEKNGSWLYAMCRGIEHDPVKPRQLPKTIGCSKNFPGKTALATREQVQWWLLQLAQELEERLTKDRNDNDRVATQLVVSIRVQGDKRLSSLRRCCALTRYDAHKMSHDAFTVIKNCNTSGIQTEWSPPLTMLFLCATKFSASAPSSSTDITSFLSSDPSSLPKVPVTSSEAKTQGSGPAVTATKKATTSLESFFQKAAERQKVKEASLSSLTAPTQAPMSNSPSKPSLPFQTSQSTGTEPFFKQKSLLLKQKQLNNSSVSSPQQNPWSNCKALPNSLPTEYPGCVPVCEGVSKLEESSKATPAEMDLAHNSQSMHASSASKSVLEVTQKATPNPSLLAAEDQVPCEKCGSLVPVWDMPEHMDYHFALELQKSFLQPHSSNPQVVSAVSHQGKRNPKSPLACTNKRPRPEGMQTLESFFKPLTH
# UniProt P43220, whole entry, looked up: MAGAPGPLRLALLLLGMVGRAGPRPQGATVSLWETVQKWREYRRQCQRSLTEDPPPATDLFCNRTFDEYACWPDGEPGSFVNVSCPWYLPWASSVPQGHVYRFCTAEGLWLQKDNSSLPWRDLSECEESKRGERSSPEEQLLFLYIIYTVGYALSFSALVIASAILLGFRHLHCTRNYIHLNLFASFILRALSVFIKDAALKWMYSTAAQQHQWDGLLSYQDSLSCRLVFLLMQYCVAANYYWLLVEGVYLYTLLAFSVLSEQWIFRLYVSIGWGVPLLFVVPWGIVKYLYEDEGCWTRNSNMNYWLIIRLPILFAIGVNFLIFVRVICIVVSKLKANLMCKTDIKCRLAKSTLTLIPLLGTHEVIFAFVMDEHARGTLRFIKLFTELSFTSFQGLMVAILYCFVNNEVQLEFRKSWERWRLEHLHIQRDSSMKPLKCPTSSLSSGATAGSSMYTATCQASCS
# UniProt P80244: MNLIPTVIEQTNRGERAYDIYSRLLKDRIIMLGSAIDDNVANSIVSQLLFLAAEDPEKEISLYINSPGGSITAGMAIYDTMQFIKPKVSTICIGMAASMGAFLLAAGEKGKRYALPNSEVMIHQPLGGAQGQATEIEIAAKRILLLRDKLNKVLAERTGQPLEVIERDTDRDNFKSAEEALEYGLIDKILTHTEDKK
# Legend:
# [1] = target: T1, Histone-lysine N-methyltransferase EHMT2 (Homo sapiens) (UniProt Q96KQ7); assay: qHTS Assay for Inhibitors of Histone Lysine Methyltransferase G9a. [Related pubchem assays (depositor defined):AID504404]; assay type: functional
# T1 sequence (whole entry): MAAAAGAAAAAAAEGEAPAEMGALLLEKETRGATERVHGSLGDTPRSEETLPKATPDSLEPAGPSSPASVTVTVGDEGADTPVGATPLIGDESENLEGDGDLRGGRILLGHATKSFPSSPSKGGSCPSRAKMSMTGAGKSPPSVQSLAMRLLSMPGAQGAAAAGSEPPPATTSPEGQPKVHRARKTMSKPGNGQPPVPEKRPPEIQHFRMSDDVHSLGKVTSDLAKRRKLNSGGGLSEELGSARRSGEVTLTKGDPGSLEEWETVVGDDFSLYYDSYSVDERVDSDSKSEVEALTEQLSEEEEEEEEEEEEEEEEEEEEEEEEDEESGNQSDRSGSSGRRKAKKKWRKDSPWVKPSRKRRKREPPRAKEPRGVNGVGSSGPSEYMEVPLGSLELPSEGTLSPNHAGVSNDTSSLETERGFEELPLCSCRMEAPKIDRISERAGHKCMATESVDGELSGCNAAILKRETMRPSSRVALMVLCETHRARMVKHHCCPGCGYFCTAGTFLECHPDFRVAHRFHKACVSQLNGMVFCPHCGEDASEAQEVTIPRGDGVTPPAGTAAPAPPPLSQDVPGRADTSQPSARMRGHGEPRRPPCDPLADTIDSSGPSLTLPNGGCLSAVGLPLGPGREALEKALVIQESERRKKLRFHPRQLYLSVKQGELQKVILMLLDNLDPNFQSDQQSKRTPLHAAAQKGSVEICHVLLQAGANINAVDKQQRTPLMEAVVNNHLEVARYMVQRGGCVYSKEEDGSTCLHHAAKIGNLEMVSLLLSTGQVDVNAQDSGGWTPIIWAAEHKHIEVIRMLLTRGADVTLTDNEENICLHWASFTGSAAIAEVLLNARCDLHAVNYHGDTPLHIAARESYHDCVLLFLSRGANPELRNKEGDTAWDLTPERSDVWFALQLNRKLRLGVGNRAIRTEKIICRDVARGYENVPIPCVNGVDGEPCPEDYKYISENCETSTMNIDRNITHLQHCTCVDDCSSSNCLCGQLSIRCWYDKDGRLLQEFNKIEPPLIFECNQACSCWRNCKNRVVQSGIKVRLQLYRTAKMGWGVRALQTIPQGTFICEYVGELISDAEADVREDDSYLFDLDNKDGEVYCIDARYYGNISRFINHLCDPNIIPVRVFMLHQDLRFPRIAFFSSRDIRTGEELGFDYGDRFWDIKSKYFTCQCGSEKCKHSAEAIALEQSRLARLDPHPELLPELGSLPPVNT
# [2] = target: Breast cancer type 1 susceptibility protein (Homo sapiens) (UniProt P38398); assay: qHTS Assay to Identify Small Molecule Activators of BRCA1 Expression.; assay type: functional
# [3] = target: Tyrosyl-DNA phosphodiesterase 1 (Homo sapiens) (UniProt Q9NUW8); assay: qHTS for Inhibitors of human tyrosyl-DNA phosphodiesterase 1 (TDP1): qHTS in cells in absence of CPT.; assay type: functional
# [4] = target: Tyrosyl-DNA phosphodiesterase 1 (Homo sapiens) (UniProt Q9NUW8); assay: qHTS for Inhibitors of human tyrosyl-DNA phosphodiesterase 1 (TDP1): qHTS in cells in presence of CPT.; assay type: functional
# [5] = target: Thioredoxin reductase 1, cytoplasmic (Rattus norvegicus) (UniProt O89049); assay: qHTS Assay for Inhibitors of Mammalian Selenoprotein Thioredoxin Reductase 1 (TrxR1): qHTS. [Related pubchem assays (depositor defined):AID488771]; assay type: functional
# [6] = target: T2, DNA polymerase iota (Homo sapiens) (UniProt Q9UNA4); assay: qHTS for Inhibitors of Polymerase Iota. [Related pubchem assays (depositor defined):AID588623]; assay type: functional
# T2 sequence (whole entry): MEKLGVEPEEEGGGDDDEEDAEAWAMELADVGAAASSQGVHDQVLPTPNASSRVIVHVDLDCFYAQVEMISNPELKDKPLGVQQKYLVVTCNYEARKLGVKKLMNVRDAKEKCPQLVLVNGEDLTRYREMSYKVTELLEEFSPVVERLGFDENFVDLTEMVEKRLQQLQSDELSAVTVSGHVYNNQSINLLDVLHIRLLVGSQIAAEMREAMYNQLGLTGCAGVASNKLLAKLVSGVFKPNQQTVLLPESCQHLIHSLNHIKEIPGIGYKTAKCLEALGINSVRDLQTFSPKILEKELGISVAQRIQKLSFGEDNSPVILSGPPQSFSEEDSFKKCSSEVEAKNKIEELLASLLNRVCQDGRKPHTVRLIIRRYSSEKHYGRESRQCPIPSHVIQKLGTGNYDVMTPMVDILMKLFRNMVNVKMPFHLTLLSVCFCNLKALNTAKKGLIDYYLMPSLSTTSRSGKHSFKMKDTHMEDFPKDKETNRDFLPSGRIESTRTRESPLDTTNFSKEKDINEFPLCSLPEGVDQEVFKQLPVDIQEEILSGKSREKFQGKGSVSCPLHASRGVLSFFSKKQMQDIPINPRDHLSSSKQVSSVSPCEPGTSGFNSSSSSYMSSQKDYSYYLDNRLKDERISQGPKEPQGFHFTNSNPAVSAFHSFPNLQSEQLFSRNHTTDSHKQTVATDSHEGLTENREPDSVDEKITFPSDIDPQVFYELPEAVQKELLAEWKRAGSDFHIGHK
# Geminin (Homo sapiens) [7] = target: Geminin (Homo sapiens) (UniProt O75496); assay: A quantitative high throughput screen for small molecules that induce DNA re-replication in SW480 colon adenocarcinoma cells.; assay type: functional, cell-based
# Ataxin-2 (Homo sapiens) = Ataxin-2 (Homo sapiens) (UniProt Q99700); assay: qHTS for Inhibitors of ATXN expression.; assay type: functional
# Geminin (Homo sapiens) [8] = target: Geminin (Homo sapiens) (UniProt O75496); assay: A quantitative high throughput screen for small molecules that induce DNA re-replication in MCF 10a normal breast cells.; assay type: functional
# [9] = target: T3, Aberrant vpr protein (Human immunodeficiency virus 1) (UniProt Q77YF9); assay: qHTS Assay for Inhibitors of the HIV-1 protein Vpr.; assay type: functional
# T3 sequence (whole entry): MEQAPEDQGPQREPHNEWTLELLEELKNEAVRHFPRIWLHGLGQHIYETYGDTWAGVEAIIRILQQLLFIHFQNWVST
# [10] = target: Nuclear factor erythroid 2-related factor 2 (Homo sapiens) (UniProt Q16236); assay: qHTS of Nrf2 Activators.; assay type: functional
# [11] = target: TAR DNA-binding protein 43 (Homo sapiens) (UniProt Q13148); assay: qHTS of TDP-43 Inhibitors.; assay type: functional
# [12] = target: Flap endonuclease 1 (Homo sapiens) (UniProt P39748); assay: qHTS Assay for the Inhibitors of Human Flap endonuclease 1 (FEN1). [Related pubchem assays (depositor defined):AID488813]; assay type: functional
# [13] = target: Serine/threonine-protein kinase PLK1 (Homo sapiens) (UniProt P53350); assay: qHTS for Inhibitors of PLK1-PDB (polo-like kinase 1 - polo-box domain): Primary Screen.; assay type: functional
# [14] = target: Mothers against decapentaplegic homolog 3 (Homo sapiens) (UniProt P84022); assay: qHTS for Inhibitors of TGF-b. [Related pubchem assays (depositor defined):AID588856, AID588860]; assay type: functional
# [15] = target: Vitamin D3 receptor (Homo sapiens) (UniProt P11473); assay: Inhibitors of the vitamin D receptor (VDR): qHTS. [Related pubchem assays (depositor defined):AID504855]; assay type: functional
# [16] = target: DNA polymerase eta (Homo sapiens) (UniProt Q9Y253); assay: qHTS for Inhibitors of Polymerase Eta. [Related pubchem assays (depositor defined):AID588636]; assay type: functional
# Plasmodium falciparum [17] = assay: Primary qHTS for delayed death inhibitors of the malarial parasite plastid, 48 hour incubation. [Related pubchem assays (depositor defined):AID488752, AID488774, AID504848, AID504850]; assay type: functional
# [18] = qHTS Assay for Inhibitors of Hepatitis C Virus (HCV).; assay type: functional
# [19] = target: Glucagon-like peptide 1 receptor (Homo sapiens) (UniProt P43220); assay: qHTS of GLP-1 Receptor Inverse Agonists (Inhibition Mode).; assay type: functional
# [20] = target: ATP-dependent Clp protease proteolytic subunit (Bacillus subtilis (strain 168)) (UniProt P80244); assay: qHTS Assay for Activators of ClpP.; assay type: functional
# [21] = target: Rap guanine nucleotide exchange factor 3 (Homo sapiens) (UniProt O95398); assay: qHTS for Agonist of cAMP-regulated guanine nucleotide exchange factor 3 (EPAC1): primary screen.; assay type: functional
# [22] = target: Bromodomain adjacent to zinc finger domain protein 2B (Homo sapiens) (UniProt Q9UIF8); assay: qHTS Assay for Inhibitors of BAZ2B. [Related pubchem assays (depositor defined):AID504391]; assay type: functional
# Plasmodium falciparum [23] = assay: Primary qHTS for delayed death inhibitors of the malarial parasite plastid, 96 hour incubation. [Related pubchem assays (depositor defined):AID488745, AID488752, AID488774, AID504848, AID504850]; assay type: functional
# [24] = qHTS for induction of synthetic lethality in tumor cells producing 2HG: qHTS for the HT-1080-IDH1KD cell line.; assay type: functional
# [25] = target: Guanine nucleotide-binding protein G(s) subunit alpha isoforms short (Homo sapiens) (UniProt P63092); assay: qHTS for Agonist of gsp, the Etiologic Mutation Responsible for Fibrous Dysplasia/McCune-Albright Syndrome: qHTS.; assay type: functional
# [26] = target: Putative uncharacterized protein (Trypanosoma brucei) (UniProt Q57TT1); assay: qHTS of Trypanosoma Brucei Inhibitors.; assay type: functional
smiles,measurement,setting,value
NC(=NO)c1c(N)no[n+]1[O-],Potency,[1],inconclusive: 79.4 µM
O=Cc1ccc(N(CCCl)CCCl)cc1,Potency,[2],inconclusive: 1.58 µM
same,Potency,[3],inconclusive: 22.4 µM
same,Potency,[4],inconclusive: 22.4 µM
ClCCN(CCCl)c1ccccc1,Potency,[5],inconclusive: 44.7 µM
Cn1c(=O)[nH]cc(N(CCCl)CCCl)c1=O,Potency,[6],inconclusive: 31.6 µM
same,Potency,Geminin (Homo sapiens) [7],inconclusive: 23.1 µM
same,Potency,Ataxin-2 (Homo sapiens),inconclusive: 44.7 µM
same,Potency,Geminin (Homo sapiens) [8],inconclusive: 23.1 µM
same,Potency,[3],inconclusive: 1.3 µM
Cc1ccc(Nc2c([N+](=O)[O-])cc([N+](=O)[O-])cc2[N+](=O)[O-])cc1,Potency,[9],inconclusive: 31.6 µM
same,Potency,[10],inconclusive: 3.55 µM
same,Potency,[11],inconclusive: 17.8 µM
O=C(CBr)c1ccc(Cl)cc1,Potency,[6],inconclusive: 89.1 µM
same,Potency,[3],inconclusive: 35.5 µM
same,Potency,[4],inconclusive: 25.1 µM
CCOC(=O)C(CC)C1=NC(C)(C)Cc2ccccc21 (centres undefined),Potency,Ataxin-2 (Homo sapiens),inconclusive: 10 µM
O=C(OC1CN2CCC1CC2)c1ccc([N+](=O)[O-])cc1 (centres undefined),Potency,[1],inconclusive: 50.1 µM
O=C1C(O)=C([N+](=O)[O-])C(=O)C(O)=C1[N+](=O)[O-],Potency,[6],inconclusive: 14.1 µM
same,Potency,[12],inconclusive: 31.6 µM
same,Potency,[13],inconclusive: 33.6 µM
Cc1cc(N(CCCl)CCCl)ccc1C=O,Potency,[14],inconclusive: 2 µM
same,Potency,Geminin (Homo sapiens) [7],inconclusive: 6.51 µM
same,Potency,Ataxin-2 (Homo sapiens),inconclusive: 1.19 µM
same,Potency,Geminin (Homo sapiens) [8],inconclusive: 4.11 µM
same,Potency,[3],inconclusive: 7.31 µM
same,Potency,[11],inconclusive: 12.6 µM
CCc1nc2c([nH]1)c1no[n+]([O-])c1c1no[n+]([O-])c21,Potency,[15],inconclusive: 70.8 µM
same,Potency,[16],inconclusive: 20 µM
same,Potency,Plasmodium falciparum [17],inconclusive: 11.7 µM
same,Potency,[18],inconclusive: 31.6 µM
same,Potency,Geminin (Homo sapiens) [7],inconclusive: 20.6 µM
same,Potency,[19],inconclusive: 28.2 µM
same,Potency,[3],inconclusive: 29.1 µM
same,Potency,[4],inconclusive: 29.1 µM
CCN(CC)CCCNc1ccccc1[N+](=O)[O-],Potency,[11],inconclusive: 0.0059 µM
CC1=NCCc2c1[nH]c1ccccc21,Potency,Geminin (Homo sapiens) [8],inconclusive: 18.4 µM
COc1ccccc1-c1ccccn1,Potency,Ataxin-2 (Homo sapiens),inconclusive: 22.4 µM
COc1ccc(-c2ccccn2)cc1,Potency,[20],inconclusive: 2.43 µM
same,Potency,[21],inconclusive: 0.0547 µM
ClCCN(CCCl)c1ccc(C=C2C=CC=C2)cc1,Potency,[6],inconclusive: 8.91 µM
O=[N+]([O-])c1cc([N+](=O)[O-])c(OC2CCCCC2O)c([N+](=O)[O-])c1 (centres undefined),Potency,[22],inconclusive: 89.1 µM
same,Potency,Plasmodium falciparum [23],inconclusive: 10.4 µM
same,Potency,Ataxin-2 (Homo sapiens),inconclusive: 18.9 µM
same,Potency,[4],inconclusive: 20.6 µM
O=[N+]([O-])c1cc([N+](=O)[O-])c(Nc2ccc(Cl)cc2)c([N+](=O)[O-])c1,Potency,Ataxin-2 (Homo sapiens),inconclusive: 10 µM
same,Potency,[9],inconclusive: 20 µM
same,Potency,[24],inconclusive: 23.1 µM
O=C(O)c1cccc(Nc2c([N+](=O)[O-])cc([N+](=O)[O-])cc2[N+](=O)[O-])c1,Potency,Plasmodium falciparum [23],inconclusive: 0.0033 µM
same,Potency,[16],inconclusive: 35.5 µM
same,Potency,Ataxin-2 (Homo sapiens),inconclusive: 35.5 µM
O=[N+]([O-])c1cc([N+](=O)[O-])c(NCC2CCS(=O)(=O)C2)c([N+](=O)[O-])c1 (centres undefined),Potency,[5],inconclusive: 22.4 µM
same,Potency,[18],inconclusive: 22.4 µM
same,Potency,Geminin (Homo sapiens) [7],inconclusive: 20.6 µM
same,Potency,Ataxin-2 (Homo sapiens),inconclusive: 29.9 µM
Nc1ccc2c(ccc3cccnc32)n1,Potency,Ataxin-2 (Homo sapiens),inconclusive: 14.1 µM
same,Potency,[25],inconclusive: 6.31 µM
Cc1nc2ccc3ccccc3c2s1,Potency,[22],inconclusive: 89.1 µM
same,Potency,[1],inconclusive: 31.6 µM
same,Potency,[15],inconclusive: 89.1 µM
same,Potency,Ataxin-2 (Homo sapiens),inconclusive: 22.4 µM
same,Potency,[25],inconclusive: 17.8 µM
same,Potency,[9],inconclusive: 8.91 µM
same,Potency,[26],inconclusive: 39.8 µM
